Potency data for nine molecules are collected here from PubChem BioAssay AID588397 (National Center for Advancing Translational Sciences (NCATS), 2011).

The list shows a part of the results, in another mix than the full data. Results filed as inconclusive are left out. Active and inactive are the calls of the source. The call rests on the fitted dose curve; in most records, active means well fitted inhibition curve with a large enough effect; inconclusive means small, poorly fitted or top-dose-only effect; inactive means no such curve, though single readings can be large or run the other way.
Potency means the concentration at half of the fitted maximal effect.

A short description of this assay: qHTS of small molecules that selectively kill Giardia lamblia: Hit Validation.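 Further: viability measured as ATP content by luminescence so killing lowers signal; trophozoites exposed to compounds for 48 h anaerobically at 37 °C; nearly all actives have a fitted effect of over 65% in size.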 As to conditions: Giardia lamblia trophozoite viability, dose-response. The text has this: Giardia lamblia is a human pathogen afflicting impoverished nations, and the most common cause of outbreaks of diarrhea in the United States. Giardia has been classified by the CDC as a category B bioterrorism organism. The favored anti giardiasis drugs in the US are metronidazole or tinidazole, compounds that have undesirable side effects. Moreover, increasing resistance to drug regimes and recurrence are a concern. It is thus clear that alternative drug treatments are needed.
In a collaboration between the University of Maryland, College Park and the NIH Chemical Genomics Center, a bioluminescence Giardia viability assay based on the trophozoites' ATP content was developed. This assay is suitable for high throughput screening, and miniaturized the assay for compound screening in 1536-well plates. The goal of the project is to screen the Molecular Libraries Small Molecule Repository (MLSMR) for compounds that selectively kill Giardia trophozoites.
NIH Chemical Genomics Center [NCGC]
NIH Molecular Libraries Probe Centers Network [MLPCN]
Assay Submitter (PI): Osnat Herzberg, University of Maryland, College Park, MD.
1. Dispense 2 ul/well media
2. Dispense 23 nl/well compounds
3. Dispense 4 ul/well Giardia trophozoites at a concentration of 100 cells/well
4. Incubate 48 hrs at 37 deg C anaerobically
5. Dispense 4 ul/well ATPLite 1-Step Luminescence assay kit
6. Incubate 15-30 min at room temperature
7. Read luminescence signal on ViewLux plate reader
Background: In qHTS, concentration-response curves come from the screen itself.
For the molecule `Nc1cccc([As](=O)(O)c2ccccc2)c1`, the Potency is active: 6500 nM.

As for `O=[As](O)(c1cccs1)c1cccs1`, the Potency is active: 2050 nM.

Consider `O=C(Nc1ccncc1[N+](=O)[O-])c1ccc([N+](=O)[O-])cc1[N+](=O)[O-]`, for which the Potency was active: 1160 nM.

As to `O=[N+]([O-])c1cc([N+](=O)[O-])c(-c2ccn[nH]2)s1`, the Potency is active: 516 nM.

In the case of `COc1cc(I)ccc1[As](=O)(O)O`, the Potency is active: 1300 nM.

For the molecule `NC(=O)c1cc([N+](=O)[O-])cc([N+](=O)[O-])c1N`, the Potency is active: 3650 nM.

Regarding `Nc1ccc([As](=O)(O)c2ccc([N+](=O)[O-])cc2)cc1`, the Potency was active: 2050 nM.

Turning to `O=[N+]([O-])c1cc([N+](=O)[O-])c2nc[nH]c2c1`, the Potency is active: 1450 nM.

For the molecule `O=c1c2cc([N+](=O)[O-])ccc2[nH]c2c([N+](=O)[O-])cc([N+](=O)[O-])cc12`, the Potency was active: 2310 nM.
